# According to PMC12114195, “Synthesis, Experimental and Computational Evaluation of SERAAK1 as a 5-HT2A Receptor Ligand” (Molecules, 2025):
# Experiment: PAMPA passive permeability
# Format: in vitro ADME
# Conditions: PBS pH 7.4, 5 h, read-out: Pe ± SD
# Method: The PAMPA assay was utilized to evaluate the ability of SERAAK1 to passively diffuse through a lipid-infused artificial membrane. The results, gathered in Table 3, were expressed as permeability coefficient Pe, calculated according to the formulas described elsewhere.
# The pre-coated PAMPA Plate System Gentest from Corning (Tewksbury, MA, USA) was used in experiments using the instructions of the manufacturer. SERAAK1 and reference compounds were diluted in the PBS buffer (pH 7.4) to the final concentration of 100 μM and placed on the 96-well donor microplate. The exact quantity of molecules that successfully penetrated from donor to acceptor wells through the phospholipid membrane was estimated after 5 h of incubation using UPLC-MS spectrometry (Waters ACQUITY™ TQD system with the TQ Detector, Waters, Milford, CT, USA). The final permeability coefficient (Pe, cm/s) calculation was performed using the formula provided by the vendor of the PAMPA Plate System.
structure (smiles),measurement,value
"Cn1c(=O)c2c(ncn2C)n(C)c1=O [Caffeine, reference compound]","Papp at 5 h, 100 μM",12.4 ± 0.6 ×10⁻⁶ cm/s
